For data set [1], the system named is CYP1A2, 2C9, 2C19, 2D6, and 3A4 (isoform not given). The experiment in a line: in vitro. Conditions: human.
The subject of data set [2] is CYP1A2, 2C9, 2C19, 2D6, and 3A4. Conditions: known CYP inducers; CYP isoform not specified.

As a reminder, the IC50 is the concentration that gives 50% inhibition. A high value points to weaker potency. Consider `N#C/C(=C1/SC[C@@H](c2ccc(Cl)cc2Cl)S1)n1ccnc1` [luliconazole, reference compound], for which, in data set [1], the IC50 at 1 h is less than 2000 nM.
For the molecule `Clc1ccc(COC(Cn2ccnc2)c2ccc(Cl)cc2Cl)cc1` (centres unmarked) [econazole], the IC50 at 1 h in data set [1] is less than 2000 nM.
As to `O=C1NC(=O)C(c2ccccc2)(c2ccccc2)N1` [phenytoin], the “activity outcome in CYP assays” value in data set [2] is “either inactive or inhibitors”.
Same read-out and setting: next, `NC(=O)N1c2ccccc2C=Cc2ccccc21` [carbamazepine]: “either inactive or inhibitors”; `CCC1(c2ccccc2)C(=O)NC(=O)NC1=O` [phenobarbital]: “either inactive or inhibitors”.
